Measured values taken from patent US20260027116A1, “Methods of Treating Chronic Graft-Versus-Host Disease Following Allogeneic Hematopoietic Stem Cell Transplantation” (Kadmon Corporation, LLC, priority 2022, published 2026).

Tested on: chronic graft-versus-host disease (cGVHD)
Assay: Example 1 phase IIa study: response per 2014 NIH cGVHD criteria (ORR, BOR, DOR, TTR, TTNT, FFS, OS, organ response)
Type: in vivo, human
Settings: mITT, up to 64.2 months
Excerpt: Eligible patients were allogeneic bone marrow transplant or allogeneic hematopoietic cell transplant (alloHCT) recipients of age≥18 years with persistent cGVHD manifestations after having received one to three prior systemic lines of therapy and who were receiving corticosteroid treatment with or without a calcincurin inhibitor and/or concurrent extracorporeal photopheresis.
Inclusion criteria. Adult male and female subjects at least 18 years of age who had allogenic bone marrow transplant or hematopoietic stem cell transplantation. Received glucocorticoid therapy and calcineurin therapy or glucocorticoid therapy alone for cGVHD at study entry. Participants on calcineurin therapy only, without glucocorticoid therapy, were not eligible. Participants also received other therapies thought not to be immunosuppressive (such as extracorporeal photopheresis; ECP), were considered for enrollment in this study on a case-by-case basis. […] No more than 3 prior lines of treatment for cGVHD. Karnofsky Performance Scale of greater than (>) 40.
Exclusion Criteria. Participant who was pregnant or breastfeeding. Received an investigational GVHD treatment within 28 days of study entry. Had acute GVHD. Taken any medication known to be a moderate or strong inhibitor of the cytochrome (CY) P3A4 isozyme or any drugs that are moderate or strong CYP3A4 inducers. […]
(FIG. 1) Before enrollment of the subsequent cohort, safety data in each previous cohort were analyzed after eight patients reached two months of treatment to assure that there was no safety signal. […]
Progression was defined per the 2014 NIH cGVHD Consensus Criteria. […] Response was initially assessed after two cycles; however, this was amended to evaluate response on day 1 of each cycle, starting at cycle 2 day 1.
All responses were assessed by the investigators.
Assuming a best ORR of 25%, which was determined to be clinically meaningful, the study was expected to have approximately 90% probability to show a response in ≥2 patients per cohort. […]

## CC(C)NC(=O)COc1cccc(-c2nc(Nc3ccc4[nH]ncc4c3)c3ccccc3n2)c1 [Belumosudil, 2-{3-[4-(1H-indazol-5-ylamino)-2-quinazolinyl]phenoxy}-N-(propan-2-yl) acetamide]
Cohort 1, 200 mg QD
  Percentage of Participants With Overall Response (95% CI): 65 (38-86%) percentage of participants
Cohort 2, 200 mg BID
  Percentage of Participants With Overall Response (95% CI): 69 (41-89%) percentage of participants
Cohort 3, 400 mg QD
  Percentage of Participants With Overall Response (95% CI): 57 (34-78%) percentage of participants
